The numbers were not newly measured in patent publication US10350210B2, “EGFR and ALK dual inhibitor” (PRECEDO PHARMACEUTICALS CO., LTD, priority 2015, dated 2019), which cites them from elsewhere.

In this data set the test system is cancer patients with ALK translocation. Conditions: phase I study; cited from earlier work.

As for `C[C@@H](Oc1cc(-c2cnn(C3CCNCC3)c2)cnc1N)c1c(Cl)ccc(F)c1Cl` [Crizotinib, reference compound], the disease control rate is 90% and the overall response rate is 57%.
